The test concerns allo-lymphocytes. The test is described as follows: Recovery of proliferation in allo-MLR with PSI-treated DC by IL-2 or anti CD28. Format: cell-based, human. The conditions noted are these: IL-2 2 ng/ml or anti CD28 10 μg/ml added at plating, day 6. Here is the method: FIG. 4. Lack of recovery of proliferation response in allo-MLR. Mature DC was treated with vehicle (A) or PSI (1 μM) (B) for 4 h. After wash graded number of each treated DC and 10^5 cells of allo-lymphocytes were plated on a 96 well plate with vehicle (∘,●), 2 ng/ml. of IL-2 (□,▪) or 10 µg/ml. of anti CD28 Ab (Δ, ▴). Proliferation was determined at day 6 using ^3H-TdR uptake assay. (Each point represents mean+/−SEM from three separate experiments).
There are two broad possibilities as to the mechanism of the low proliferative response of T cells to PSI-DC. One is that these DC are not stimulatory, and the T cells are not responding for that reason. The second is that the T. cells have been actively ‘switched off’ by processes of tolerance or active immune regulation. To begin to discriminate between these possibilities, we attempted to stimulate the T cells with IL-2, or anti CD28 at concentrations (2-ng/ml. IL-2 or 10 μg/ml. anti CD28).
The IL-2 or anti CD28 was added at the same time when T cells and DC were plated.

We go through 1 substance from patent US7915009B2, “Activation and inhibition of the immune system” (The Mathilda and Terence Kennedy Institute of Rheumatology …, priority 1999, dated 2011).

“Also recorded” adds a separate entry of the source.

Consider “IL-2: cytokine added at 2 ng/ml to the MLR”, for which the “restoring proliferation of T cells in MLR with PSI-treated DC” value is “very slight effect at restoring proliferation; also recorded: failed to stimulate”.
